# Data from patent US10059709B2, “Compounds” (Elanco Tiergesundheit AG, priority 2014, dated 2018).
# By UniProt entry, the sequences of proteins in these tests, tags left out. Residues count along the entry.
# UniProt P23458, 866-1154: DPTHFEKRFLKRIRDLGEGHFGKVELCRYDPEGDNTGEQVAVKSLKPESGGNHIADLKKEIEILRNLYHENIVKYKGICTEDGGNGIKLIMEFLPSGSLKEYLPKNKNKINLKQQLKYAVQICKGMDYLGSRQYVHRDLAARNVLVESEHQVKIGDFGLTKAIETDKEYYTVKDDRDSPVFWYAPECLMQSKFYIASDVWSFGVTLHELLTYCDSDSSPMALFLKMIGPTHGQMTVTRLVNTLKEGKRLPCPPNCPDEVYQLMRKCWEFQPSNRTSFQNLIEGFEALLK
# UniProt P29597, 888-1187: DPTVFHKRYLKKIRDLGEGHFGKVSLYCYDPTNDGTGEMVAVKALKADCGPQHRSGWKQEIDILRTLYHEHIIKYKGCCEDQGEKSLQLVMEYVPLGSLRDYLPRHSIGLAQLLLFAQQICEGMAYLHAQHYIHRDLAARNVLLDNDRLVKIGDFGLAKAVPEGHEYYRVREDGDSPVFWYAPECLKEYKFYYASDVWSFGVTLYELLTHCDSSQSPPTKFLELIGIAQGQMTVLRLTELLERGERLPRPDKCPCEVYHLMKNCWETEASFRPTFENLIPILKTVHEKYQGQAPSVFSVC
# Molecular target: GST-JAK1(866-1154) (Homo sapiens (Human), UniProt P23458)
# Test: Caliper mobility shift kinase assay, JAK1
# Format: biochemical
# Conditions: IRS-1 peptide 5 μM, ATP 40 μM, 60 minutes at 30° C.
# Excerpt: (§1) Measurement of the Effect on the JAK Enzyme
# (§2) All four kinases of the JAK/TYK-kinase family were used as purified recombinant GST-fusion proteins, containing the active kinase domains. GST-JAK1(866-1154), GST-JAK3(811-1124), and GST-TYK2(888-1187) were expressed and purified by affinity chromatography at the EPK biology unit.
# (§3) The kinase assays were based on the Caliper mobility shift assay using the LabChip 3000 systems. This technology is similar to capillary electrophoresis and uses charge driven separation of substrate and product in a microfluidic chip.
# (§4) All kinase reactions were performed in 384 well microtiter plates in a total reaction volume of
# (§5) 18 μI. The assay plates were prepared with 0.1 μI per well of test compound in the appropriate test concentration, as described under the section “preparation of compound dilutions”. The reactions were started by combining 9 μI of substrate mix (consisting of peptide and ATP) with 9 μI of kinase dilution. The reactions were incubated for 60 minutes at 30° C. and stopped by adding 70 μI of stop buffer (100 mM Hepes, 5% DMSO, 0.1% Coating reagent, 10 mM EDTA, 0.015% Brij 35).
# (§6) Fluorescently labeled synthetic peptides were used as substrates in all reactions. A peptide derived from the sequence of IRS-1 (IRS-1 peptide, FITC-Ahx-[…]-NH2) was used for JAK1 and TYK2 and a peptide named JAK3tide (FITC-[…]-NH2) for JAK3. Specific assay conditions are described in Table 4:
# (§7) The terminated reactions were transferred to the Caliper LabChip 3000 reader and the turnover of each reaction was measured by determining the substrate/product ratio.
# (§8) Preparation of Compound Dilutions
# (§9) Test compounds were dissolved in DMSO (10 mM) and transferred into 1.4 mL flatbottom or V-shaped Matrix tubes carrying a unique 2D matrix chip by individual compound hubs. The numbers of these chips were distinctively linked to the individual compound identification numbers. The stock solutions were stored at −20° C. if not used immediately. […]
row,IC50,SMILES
1,838 nM,CNS(=O)(=O)C[C@H]1CC[C@H](N(C)c2ncnc3[nH]c(C)nc23)CC1 [compound 1]
2,2000 nM,CNS(=O)(=O)C[C@H]1CC[C@H](Nc2nc(N)ncc2Br)CC1 [compound 13]
3,21 nM,CNS(=O)(=O)C[C@H]1CC[C@H](N(C)c2c([N+](=O)[O-])cnc3[nH]ccc23)CC1 [compound 18]

# Molecular target: GST-TYK2(888-1187) (Homo sapiens (Human), UniProt P29597)
# Test: Caliper mobility shift kinase assay, TYK2
# Format: biochemical
# Conditions: IRS-1 peptide 5 μM, ATP 30 μM, 60 minutes at 30° C.
# Excerpt: as §1, §2, §3, §4, §5, §6, §7, §8, §9
row,IC50,SMILES
1,5510 nM,CNS(=O)(=O)C[C@H]1CC[C@H](N(C)c2ncnc3[nH]c(C)nc23)CC1 [compound 1]
2,1100 nM,"CNS(=O)(=O)C[C@H]1CC[C@H](Oc2c([N+](=O)[O-])cnc3[nH]ccc23)CC1 [compound 25, N-methyl-1-[trans-4-[(5-nitro-1H-pyrrolo[2,3-b]pyridin-4-yl)oxy]cyclohexyl]methanesulfonamide]"
3,7800 nM,CNS(=O)(=O)C[C@H]1CC[C@H](Nc2c(C#N)cnn3cccc23)CC1 [compound 27]
